The structures appear in SMILES notation. This is a selection; strong and weak results do not stand in their true shares. Some results for these compounds are left out of this collection, so the calls shown say nothing about other tests. Active and inactive are the calls of the source. Rule as the data show it: active = inhibition above about 37%; inactive = the rest.

The test can be described thus: compounds displacing fluorescent DNA intercalator, primary screen, artefact control for HCV NS3 helicase inhibitor project, biochemical, FID fluorescence (AID 1845).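 Also: 0% = vehicle and 100% = reference compound; higher means more ethidium bromide displaced from hairpin DNA.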 Particulars: DNA fluorescent intercalator displacement, at 7.9 µM, hits give high values.
Usually inhibition stands for the relative decrease from the control value, in per cent. Regarding `COc1cccc(C(=O)NCC2(N3CCCCC3)CCCCC2)c1`, the inhibition was inactive: 4.92%.

As to `COc1ccc(Cl)cc1C(=O)NCC1(N(C)C)CCCCC1`, the inhibition was inactive: 1.15%.

For the compound `O=C(NCC1(N2CCCCC2)CCCCC1)c1cccc(Cl)c1`, the inhibition is inactive: 1.07%. In the case of `CN(C)C1(CNC(=O)c2ccc(Br)cc2)CCCCC1` it was inactive: -1.34%; in that of `COc1cc(C(=O)NCC2(N(C)C)CCCCC2)c([N+](=O)[O-])cc1OC`, inactive: -5.57%; in that of `COc1ccc(Br)c(C(=O)NCC2(N3CCCCC3)CCCCC2)c1`, inactive: -6.3%. To `CC(C)Oc1ccc(C(=O)NCC2(N(C)C)CCCCC2)cc1` belongs inactive: 0.53%; to `CN(C)c1cccc(C(=O)NCC2(N(C)C)CCCCC2)c1`, inactive: 6.24%; to `O=C(OC1CN2CCC1CC2)C(CO)(c1ccccc1)c1ccccc1` (centres undefined), inactive: 8.51%. In the case of `CCN(CC)CC(C)C(C)OC(=O)C(O)(c1ccccc1)c1ccccc1` (centres undefined) it was inactive: 4.7%; in that of `COc1cc(SC)ccc1C(=O)NCC1(N(C)C)CCCCC1`, inactive: -0.03%. Take `CC(C)N1C(=O)CC2(CCN(CCOC(=O)C(O)(c3ccccc3)c3ccccc3)CC2)C1=O`: the inhibition was inactive: 2.1%. Regarding `Cc1ccc(C(=O)NCC2(N3CCCCC3)CCCCC2)cc1`, the inhibition was inactive: -7.91%. In the case of `O=C(NCC1(N2CCCCC2)CCCCC1)c1cc([N+](=O)[O-])ccc1Cl` it was inactive: 9.41%; in that of `CN1[C@@H]2CC[C@H]1CC(OC(=O)C(O)(c1ccccc1)c1ccccc1)C2` (some centres undefined), inactive: 0.69%. Consider `C=CCN1CCN(CCOC(=O)C(O)(c2ccccc2)c2ccccc2)CC1`, for which the inhibition is inactive: 7.22%.

Take `O=C(NCC1(N2CCCCC2)CCCCC1)c1cc(F)c(F)cc1Cl`: the inhibition is inactive: -7.05%. As to `COc1ccc(C(=O)NCC2(N(C)C)CCCCC2)cc1`, the inhibition was inactive: -4.41%. To `Cc1cc(C(=O)NCC2(N3CCCCC3)CCCCC2)ccc1[N+](=O)[O-]` belongs inactive: 5.24%. To `CCN1CCCC(OC(=O)C2(O)c3ccccc3C=Cc3ccccc32)C1` (centres undefined) belongs inactive: 24.1%. Take `O=C(NCC1(N2CCCCC2)CCCCC1)c1cccc(Br)c1`: the inhibition was inactive: 4.56%.

Consider `Cc1ccccc1C(=O)NCC1(N2CCCCC2)CCCCC1`, for which the inhibition is inactive: -4.89%. To `CN(C)C1CCCC1OC(=O)C(O)(c1ccccc1)c1ccccc1` (centres undefined) belongs inactive: -0.72%; to `CN(C)c1ccc(C(=O)NCC2(N(C)C)CCCCC2)cc1`, inactive: -5.64%.

For the origin of these results see PubChem BioAssay AID1845 (The Scripps Research Institute Molecular Screening Center, 2009).
